Chains of the proteins cited; added tags and fusions are not shown.
UniProt Q92847, whole entry: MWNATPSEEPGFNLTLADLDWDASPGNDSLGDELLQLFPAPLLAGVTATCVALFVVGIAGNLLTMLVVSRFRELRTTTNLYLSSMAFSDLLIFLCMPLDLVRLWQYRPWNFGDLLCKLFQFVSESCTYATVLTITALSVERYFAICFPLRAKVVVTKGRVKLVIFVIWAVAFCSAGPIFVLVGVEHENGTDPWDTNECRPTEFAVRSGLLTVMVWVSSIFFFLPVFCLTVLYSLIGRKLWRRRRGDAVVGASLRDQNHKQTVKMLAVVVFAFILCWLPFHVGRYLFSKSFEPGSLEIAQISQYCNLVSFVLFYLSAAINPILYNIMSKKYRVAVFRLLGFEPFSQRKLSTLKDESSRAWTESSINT

In ChEMBL document CHEMBL2169767 (J Med Chem, 2012):

How the values were obtained:
[1] = target: T1, Growth hormone secretagogue receptor type 1 (Homo sapiens, UniProt Q92847); assay: Activation of human ghrelin receptor expressed in COS 7 cells using [2-3H]myo-inositol by inositol triphosphate turnover assay; format: functional, cell-based
In short: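 Stimulated with seven to nine peptide concentrations, stopped by aspirating medium. Lysate supernatant purified on anion-exchange resin. Emax = difference between constitutive activity and activity at maximal peptide effect; EC50 = half-maximal concentration.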

[2] = target: T1, Growth hormone secretagogue receptor type 1; assay: Displacement of [125I]-His-ghrelin from human ghrelin receptor expressed in COS7 cells incubated for 75 mins by scintillation counting based assay; format: cell-based, COS-7
[3] = target: T1, Growth hormone secretagogue receptor type 1; assay: Ratio of EC50 of ghrelin to EC50 of compound at human ghrelin receptor expressed in COS 7 cells using [2-3H]myo-inositol by inositol triphosphate turnover assay; format: functional, cell-based

EC50 [1]: > 1000 nM | Ki [2]: 31.3 nM | Ratio EC50 [3]: > 700
SMILES: CC(C)C[C@H](NC(=O)[C@H](CC(C)C)NC(=O)[C@@H](Cc1csc2ccccc12)NC(=O)[C@H](Cc1ccccc1)NC(=O)[C@@H](Cc1c[nH]c2ccccc12)NC(=O)[C@@H](N)CCCCN)C(N)=O
